## Binding of CDR-mutated scFvs to a peptide of the spike HR2 region

Target peptide (SARS-CoV-2 spike, HR2 region): PDVDLGDISGINAS

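The starting antibody came from a phage panning campaign against this peptide. The library (AAYL49) carries one to three amino acid substitutions per variant, with no insertions or deletions. In AlphaSeq, yeast of one mating type display the scFv and yeast of the other type display the target. Pairs that bind mate more often; barcode pairs of the diploids are counted by sequencing. Scores were corrected for input abundance and mapped to Kd with protein pairs of known affinity run in the same pool. The assay was run in three technical replicates.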

The variants keep the light chain, the linker and the frameworks of Ab-14 (scFv order VH, the linker GGGGSGGGGSGGGGS, VL).
VH: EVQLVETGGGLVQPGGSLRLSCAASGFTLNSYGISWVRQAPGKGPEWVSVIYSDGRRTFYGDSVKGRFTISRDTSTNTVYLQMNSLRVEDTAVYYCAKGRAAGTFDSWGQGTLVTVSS
VL: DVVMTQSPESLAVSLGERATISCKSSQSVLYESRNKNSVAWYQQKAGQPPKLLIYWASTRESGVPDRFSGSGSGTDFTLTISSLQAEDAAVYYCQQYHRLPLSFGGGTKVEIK

Each variant is given by its three heavy chain CDRs, as the data file delimits them; those of the parent are GFTLNSYGIS, VIYSDGRRTFYGDSVK, GRAAGTFDS.
The read-out is the apparent dissociation constant on a log10 scale (nM): the lower, the stronger.
The mean shown is taken over the replicates in which the pair was detected.
An entry "ND" has no value in the source: the pair was not observed among the diploids in that replicate. This suggests poor binding but is not conclusive.

With GFTLNMYGIL / VIYSDGRRTFYGDSVK / GRAAGTFDW the result was 3.58, 2.72, 4.97 (mean 3.76; controls 1 of 9).
With GFTLNSYGIS / VNYSDARRTFYGDSVK / GRAAGTFAS the result was ND, ND, ND (controls 0 of 9).
With GFTLNSYGIS / VIESDGRRQFYGDSVK / GRAAGTFDW the result was ND, 4.34, ND (controls 3 of 9).
With GFTLNSYGIS / VIYSDGRETFYGDDVK / GRAAITFDS the result was 6.19, 3.61, 5.11 (mean 4.97; controls 4 of 9).
With GFTLNSYGID / VIYSDERRVFYGDSVK / GRAAGTFDS the result was ND, ND, ND (controls 0 of 9).
With GRTLNSYGIS / VIYSDGRRTFYGDSVK / GRAAGQDDS the result was ND, ND, ND (controls 0 of 9).
With GFTLNWYGIS / VIYSDGRRTFYGDSQK / GRAAGTFQS the result was ND, ND, ND (controls 0 of 9).
With GFTLNSTGWS / VIYSDGRRVFYGDSVK / GRAAGTFDS the result was ND, ND, ND (controls 0 of 9).
With GFTLNSYYIS / VIWSDGRRTFYGDSVK / GRAAGTFDN the result was ND, ND, ND (controls 2 of 9).
With GFTHNSYGIS / VIYSLGRRTFYGDSVK / GRAAGFFDS the result was ND, 4.10, ND (controls 0 of 9).
With GFFLNSYGIS / VIYSDGRVTFYGDSVK / GPAAGTFDS the result was ND, ND, ND (controls 1 of 9).
With GFTLNSYGVS / VIYSWGRRTFYGDSVK / GRAAGTFHS the result was ND, ND, ND (controls 0 of 9).
With GFTLNSYGIS / VIYSDGRRTFTGDSVK / GRTAGTFDS the result was 1.90, 1.59, 1.72 (mean 1.74; controls 2 of 9).
With GFTLNSYAIS / TIYSDGRRTFYGDSVK / GRAAGTFDS the result was ND, ND, ND (controls 2 of 9).
With IFTLNSYGIS / VIYSDGRRTFYTDSVK / GRAAGTQDS the result was ND, ND, 4.95 (controls 1 of 9).
With GFTLNSYGIS / VIYSDGRRTFYGDSVK / GSAAGTFDS the result was 0.97, 1.31, 1.06 (mean 1.11; controls 0 of 9).
With GFTLNSYGIS / VIYSDDRRTFYMDSVK / GRAAGTFDS the result was ND, ND, ND (controls 0 of 9).
With GFTLNSYGIS / VIYSDTRRTFYGDSVK / GNAAGTVDS the result was ND, ND, ND (controls 0 of 9).
With GQTLNSYGIS / VIYSCGNRTFYGDSVK / GRAAGTFDS the result was ND, ND, ND (controls 1 of 9).
With GFTLNSYGIE / VIYSDGRRTFYGISVK / GRAAVTFDS the result was ND, ND, ND (controls 0 of 9).
With GFTLNFVGIS / VIYSDWRRTFYGDSVK / GRAAGTFDS the result was ND, ND, ND (controls 1 of 9).
With GFTLNSYRIS / VIYSDGRRTFYGDSVK / GRAGGTFPS the result was ND, ND, ND (controls 1 of 9).
With GFTLNSYGIS / VIYSDGRRTFYKDSVK / GRAASTFTS the result was ND, ND, ND (controls 0 of 9).
With GFTLNSYGIS / VIYSYGRRTFRGDSVK / GRASGTFDS the result was ND, ND, ND (controls 1 of 9).
With GNTLNSYGIS / VIYSDQRRTFYGKSVK / GRAAGTFDS the result was ND, ND, ND (controls 3 of 9).
With GFTLNSYGIS / VRYSDGRRTFYGDSVK / GKAAGTFDS the result was ND, 2.84, 3.32 (mean 3.08; controls 2 of 9).
With CFTLNSYGIS / VIYSDGRFTFYGDSVK / GAAAGTFDS the result was ND, ND, ND (controls 1 of 9).
With GFTLNSPGIS / VIYSDGRRTFYGDSVK / GRAAGTFRS the result was 4.29, 4.64, ND (mean 4.46; controls 4 of 9).
With RFTLNSYGIS / VIYSDGRRTFYYDYVK / GRAAGTFDS the result was ND, 3.79, ND (controls 2 of 9).
With GFTLNSYGSS / VIISDGIRTFYGDSVK / GRAAGTFDS the result was ND, ND, ND (controls 1 of 9).

Excerpt, the first 3 entries:

CDR-H1	CDR-H2	CDR-H3	log10 Kd (nM) by replicate	mean, log10 nM	signal with controls
GFTLNMYGIL	VIYSDGRRTFYGDSVK	GRAAGTFDW	3.58, 2.72, 4.97	3.76	1 of 9
GFTLNSYGIS	VNYSDARRTFYGDSVK	GRAAGTFAS	ND, ND, ND	ND	0 of 9
GFTLNSYGIS	VIESDGRRQFYGDSVK	GRAAGTFDW	ND, 4.34, ND	4.34	3 of 9

Background: pairings of library AAYL49 with three empty control strains gave a value in 15% of cases (median 4.06, 5th percentile 2.83). Values in that range, when seen in few replicates, are hard to tell from nonspecific mating. Also given: how often the same scFv was detected with the empty control strains.

Source: Engelhart et al. 2022 (doi:10.1038/s41597-022-01779-4), MIT Lincoln Laboratory and A-Alpha Bio; data file from the FLAb repository.